One compound from patent US20040214798A1 (priority 2003, published 2004) can be followed below.

One experiment concerns hDT7 cells. To be noted: read-out: IC50 hDT7; 72 hours drug exposure; human NQO1-expressing cells.
A further experiment deals with T116 cells. As to conditions: 72 hours drug exposure.
In the next experiment the test system is F179 cells. The experiment in a line: Antiproliferative assay in vector-only control V79 cells (F179), SRB. To be noted: read-out: IC50 F179, 72 hours drug exposure.

Each structure is given as a SMILES string.

The IC50 is the midpoint of a concentration-inhibition curve. As to `O=[N+]([O-])c1ccc2c(c1)OP(=O)(N(CCCl)CCCl)OC2` (stereo not shown), the IC50 in the experiment on hDT7 cells is above 100 µM; in the experiment on T116 cells (read-out: IC50 T116, E. coli nitroreductase-expressing cells), 2.7 µM; in the experiment with F179 cells, above 100 µM. In addition, the “Ratio of IC50 values (F179/T116)” value in the experiment with T116 cells (100 μM used where IC50 >100 μM) is above 36.
